Target: T1, human SXR ligand binding domain (Homo sapiens, UniProt O75469)
T1 sequence (O75469 146-433 limits assumed): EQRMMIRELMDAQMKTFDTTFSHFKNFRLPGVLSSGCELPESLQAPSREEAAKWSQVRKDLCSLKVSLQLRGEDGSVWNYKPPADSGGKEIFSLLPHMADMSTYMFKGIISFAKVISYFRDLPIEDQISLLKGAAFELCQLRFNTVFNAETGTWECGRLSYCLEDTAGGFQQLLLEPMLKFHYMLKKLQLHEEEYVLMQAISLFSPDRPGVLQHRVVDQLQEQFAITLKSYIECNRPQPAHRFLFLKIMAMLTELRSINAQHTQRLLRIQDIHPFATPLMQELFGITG
Test: Scintillation proximity ligand binding assay, 3H-SR12813 displacement
Conditions: dose dependent

## Clc1ccccc1C(c1ccccc1)(c1ccccc1)n1ccnc1 [clotrimazole, reference compound]
  displacement of 3H-SR12813 from the SXR LBD: displaced
